The values that follow are results of earlier work, collected in patent publication US20050192349A1, “Isolation of the peroxisome proliferation-activated receptor-gamma (PPARgamma) ligand and methods of use thereof” (Beth Israel Deaconess Medical Center, Inc., priority 2002, published 2005).

Sequences of proteins named here, by UniProt entry; tags and fusion partners are left off.
UniProt P37231, whole entry: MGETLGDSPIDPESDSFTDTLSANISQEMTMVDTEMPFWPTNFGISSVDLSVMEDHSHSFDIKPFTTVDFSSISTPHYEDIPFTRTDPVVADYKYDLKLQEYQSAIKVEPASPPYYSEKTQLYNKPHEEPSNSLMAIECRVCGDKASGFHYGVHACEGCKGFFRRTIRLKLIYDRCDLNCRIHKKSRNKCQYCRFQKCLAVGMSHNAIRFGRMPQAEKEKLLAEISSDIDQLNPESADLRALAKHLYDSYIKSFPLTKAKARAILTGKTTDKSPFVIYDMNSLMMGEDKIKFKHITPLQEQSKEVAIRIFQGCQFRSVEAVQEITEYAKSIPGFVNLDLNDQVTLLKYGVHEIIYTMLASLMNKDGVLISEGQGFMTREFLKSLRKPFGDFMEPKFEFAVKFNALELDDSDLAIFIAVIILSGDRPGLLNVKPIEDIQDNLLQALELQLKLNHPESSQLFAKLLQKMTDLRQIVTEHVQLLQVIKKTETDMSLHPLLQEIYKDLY

Each structure is given as a SMILES string.

For one series, the target named is PPARγ (Homo sapiens, UniProt P37231). The settings on record: read-out: Ki for displacing rosiglitazone; cited from earlier work.
In series [1] the target is SRC-1 / synthetic agonist-bound PPARγ (Homo sapiens, UniProt P37231). The settings on record: cited from earlier work.

One may read the Ki as a measure of affinity in units of concentration, obtained from inhibition or displacement. Consider `C=CCn1cc([N+](=O)[O-])sc1=NC(=O)C(C)(C)C` [PD068235], for which the Ki at PPARγ is 1 µM. Also, the “interaction of coactivator SRC-1 with synthetic agonist-bound PPARγ” value in series [1] is listed as “inhibit the interaction of coactivator SRC-1 with synthetic agonist-bound PPARγ”.
